The values that follow are results of earlier work, collected in patent US10100331B2, “Reagent for gene-drug therapeutics” (Agency for Science, Technology and Research, priority 2012, dated 2018).

Chains of the proteins cited; added tags and fusions are not shown. Lines headed by an entry give the natural chain unless they say otherwise; changes in a name come on top.
UniProt O15379: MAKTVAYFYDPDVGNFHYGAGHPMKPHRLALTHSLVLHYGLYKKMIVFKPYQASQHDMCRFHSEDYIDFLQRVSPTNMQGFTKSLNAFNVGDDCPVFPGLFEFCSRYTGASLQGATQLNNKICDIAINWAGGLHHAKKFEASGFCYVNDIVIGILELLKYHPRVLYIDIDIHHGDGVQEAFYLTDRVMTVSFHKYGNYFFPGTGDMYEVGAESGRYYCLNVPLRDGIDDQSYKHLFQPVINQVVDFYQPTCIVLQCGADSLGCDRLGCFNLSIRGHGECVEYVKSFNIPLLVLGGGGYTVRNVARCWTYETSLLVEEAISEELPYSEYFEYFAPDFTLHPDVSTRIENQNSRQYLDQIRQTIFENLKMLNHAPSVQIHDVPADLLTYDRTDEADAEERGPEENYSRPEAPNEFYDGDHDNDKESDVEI

pIC50: −log10 of the molar value.

The data set addresses HDAC3 (Homo sapiens, UniProt O15379). The conditions noted are these: cited from earlier work.

As for `CCCC(CCC)C(=O)O` [Valproic Acid], the pIC50 is 2.38.
